Data as given in paper PMC10103840 (2023).

How the values were obtained:
[1] = System adherence test (empty perfusion chamber, maternal circuit only); format: in vitro ADME; conditions: % of initial concentration, 5 μM in PM, no placental tissue, 240 min, n = 3
human placental barrier = conditions: pH 7.2
placental tissue = experiment: Histopathological evaluation of perfused placentae; design: species or system human
BeWo cells = conditions: ref Spiess et al., 2022b; cited from earlier work
[2] = non-perfused area of same placenta

CC(C)=CCC[C@]1(C)[C@@H](CC=C(C)C)C[C@]2(CC=C(C)C)C(=O)C(CC=C(C)C)=C(O)[C@@]1(C(=O)C(C)C)C2=O [Hyperforin, hyperforin]
Compound lost / adhering to the perfusion equipment [1]: 65.4% and 65.4% ± 0.7%
Concentration in the fetal compartment (human placental barrier): 7.2 % of initial concentration
Extravasations into villous stroma (in words) (placental tissue; after perfusion): no extravasations into villous stroma
Ruptures of villous vessels (in words) (placental tissue; after perfusion): no ruptures of villous vessels
Dilatated intervillous space in non-perfused (placental tissue; [2]): 60% and 50% and 70% and 80%
Hydropic changes in non-perfused (placental tissue; [2]): 0% and 1%
Intervillous spaces without blood in non-perfused (placental tissue; [2]): 30% and 40% and 60%
Vacuolated trophoblast in villi: in non-perfused too? (placental tissue; [2]): 0% and 1%
Thrombi in vessels of stem villi (in words) (placental tissue; perfused and non-perfused): no thrombi detectable
Dilatated intervillous space (placental tissue; perfused area): 90% and 70%
Intervillous spaces without blood (placental tissue; perfused area): 70% and 95% and 99% and 80%
Emptiness of villous vessels (placental tissue; perfused area, individual experiments): 95% (2×) and 90% and 80%
Concentrations inhibiting FSK-induced placental cell differentiation (BeWo cells): ≥ 1000 nM

Values joined by “and” are separate entries in the source; they are usually repeats but may differ in a detail not shown here. Equal entries are not always repeated.
